# Measurements taken from PubChem BioAssay AID1326 (NMMLSC, 2008).
# Sequences of proteins named here, by UniProt entry; tags and fusion partners are left off.
# UniProt P08183, whole entry, looked up: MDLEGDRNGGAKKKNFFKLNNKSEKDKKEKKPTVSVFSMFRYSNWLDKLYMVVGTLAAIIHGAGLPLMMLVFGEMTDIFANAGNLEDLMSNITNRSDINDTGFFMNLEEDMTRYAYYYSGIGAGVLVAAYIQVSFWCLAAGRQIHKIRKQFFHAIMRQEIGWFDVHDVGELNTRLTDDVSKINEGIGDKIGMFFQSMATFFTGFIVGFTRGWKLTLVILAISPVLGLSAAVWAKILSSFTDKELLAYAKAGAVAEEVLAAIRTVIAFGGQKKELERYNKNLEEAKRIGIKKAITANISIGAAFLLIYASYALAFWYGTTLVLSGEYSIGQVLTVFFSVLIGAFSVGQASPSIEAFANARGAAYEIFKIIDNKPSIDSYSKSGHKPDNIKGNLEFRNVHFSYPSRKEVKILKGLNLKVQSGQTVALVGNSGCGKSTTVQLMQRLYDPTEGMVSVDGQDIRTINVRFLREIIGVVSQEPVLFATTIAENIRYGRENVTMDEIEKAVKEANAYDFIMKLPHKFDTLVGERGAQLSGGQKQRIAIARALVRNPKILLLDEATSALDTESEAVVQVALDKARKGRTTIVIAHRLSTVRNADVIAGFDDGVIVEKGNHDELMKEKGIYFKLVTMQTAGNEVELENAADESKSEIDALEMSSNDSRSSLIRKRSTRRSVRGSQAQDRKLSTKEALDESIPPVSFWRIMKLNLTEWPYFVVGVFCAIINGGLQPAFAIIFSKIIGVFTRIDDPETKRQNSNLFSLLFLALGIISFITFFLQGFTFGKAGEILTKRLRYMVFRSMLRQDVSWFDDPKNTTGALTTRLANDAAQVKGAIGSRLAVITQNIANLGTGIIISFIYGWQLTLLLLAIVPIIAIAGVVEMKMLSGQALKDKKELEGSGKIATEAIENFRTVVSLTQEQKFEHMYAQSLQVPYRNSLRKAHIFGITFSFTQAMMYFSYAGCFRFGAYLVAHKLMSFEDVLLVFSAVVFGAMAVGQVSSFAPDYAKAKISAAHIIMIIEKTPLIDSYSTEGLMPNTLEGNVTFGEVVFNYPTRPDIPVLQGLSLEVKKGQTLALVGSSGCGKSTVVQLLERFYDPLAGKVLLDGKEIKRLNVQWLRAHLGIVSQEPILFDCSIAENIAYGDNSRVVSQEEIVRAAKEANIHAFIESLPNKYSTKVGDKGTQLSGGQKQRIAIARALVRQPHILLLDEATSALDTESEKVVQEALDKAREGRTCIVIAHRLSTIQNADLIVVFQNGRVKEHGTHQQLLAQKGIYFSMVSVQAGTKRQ
# This is a selection; strong and weak results do not stand in their true shares. Active and inactive are the calls of the source. Rule as the data show it: active = inhibition above about 40%; inactive = the rest.
# Target: ATP-dependent translocase ABCB1 (Homo sapiens) (UniProt P08183)
# Test: blockers of ABCB1-mediated dye efflux – cell-based, multiplex, flow cytometry, ABCG2 counter-screen, primary screen (AID 1326);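 also: 0% = vehicle and 100% = reference inhibitor; higher value means more JC-1 retained so stronger ABCB1 efflux block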
# Settings: CCRF-Adr cells, JC-1 efflux, at 6.6 µM, hits give high values
row,SMILES,inhibition
1,COC(=O)c1cc2c(s1)N=C(c1ccccc1)N(C)P2(=O)N1CCOCC1 (configuration not stated),inactive: -0.22%
2,Cc1ccc(OP(=O)(Nc2ccccn2)Oc2ccc(C)cc2)cc1,inactive: 0.55%
3,CC(=O)NC(SC(=S)N(CC(C)C)CC(C)C)C(Cl)(Cl)Cl (configuration not stated),inactive: 0.87%
4,CCC(=O)N1C2C3N(C(=O)CC)C1C1N(C(=O)CC)C(C(N1C(=O)CC)N3C(=O)CC)N2C(=O)CC,inactive: 0.36%
5,O=c1c2cc([N+](=O)[O-])ccc2[nH]c2c([N+](=O)[O-])cc([N+](=O)[O-])cc12,inactive: -0.14%
6,CCNC(=S)/N=C(\N)N[N+](=O)[O-],inactive: 0.29%
7,O=C(NC1CCS(=O)(=O)C1)NP(=S)(Oc1ccccc1)Oc1ccccc1 (configuration not stated),inactive: 0.59%
8,c1ccc(-c2nn[nH]n2)c(-c2nn[nH]n2)c1,inactive: -0.05%
9,CCOC(=O)NC(Sc1ccccc1)C(Cl)(Cl)Cl (configuration not stated),inactive: 0.37%
10,CC(=O)Nc1ccc(Oc2c([N+](=O)[O-])cc([N+](=O)[O-])cc2[N+](=O)[O-])cc1,inactive: 4.34%
11,O=P1(Nc2nc3ccc(Cl)cc3s2)COc2ccccc2O1 (configuration not stated),inactive: 0.19%
12,CCOc1ccc(C2=NCC(CBr)S2)cc1 (configuration not stated),inactive: 0.21%
13,CC(C)(C)C(=O)NC(Sc1ccccc1)C(Cl)(Cl)Cl (configuration not stated),inactive: 0.15%
14,CC(C)C(=O)NC(Sc1ccccc1)C(Cl)(Cl)Cl (configuration not stated),inactive: 0.79%
15,O=P(Nc1nccs1)(c1ccccc1)c1ccccc1,inactive: 0.46%
16,c1nnnn1CCn1cnnn1,inactive: 0.45%
17,CC(=O)NC(SC(=S)N(C)C)C(Cl)(Cl)Cl (configuration not stated),inactive: 4.33%
18,O=C(OC1CN2CCC1CC2)c1cccc(Cl)c1 (configuration not stated),inactive: 0.75%
19,O=P(Nc1ccccn1)(c1ccc(Br)cc1)c1ccc(Br)cc1,inactive: 0.8%
20,O=[N+]([O-])c1ncn(CCn2ncnc2[N+](=O)[O-])n1,inactive: 1.23%
21,CCN(/C(=N/P(=O)(N1CCOCC1)N1CCOCC1)N1CCOCC1)c1ccc(OC)cc1,inactive: -0.28%
22,CC(C)=N/N=C(\N)N[N+](=O)[O-],inactive: 0.38%
23,CN(C)C(=O)OCCc1n(C)cc[n+]1C,inactive: 0.01%
24,CC1CCN(C(=O)Oc2c(Cl)cc(Cl)c3cccnc23)CC1,inactive: 0.45%
25,COc1ccc(C2=NCC(CBr)S2)cc1 (configuration not stated),inactive: -0.31%
26,O=[N+]([O-])c1cccc2n[nH]nc12,inactive: 0.35%

row,SMILES,inhibition
1,CC(=O)N1C2C3N(C(C)=O)C1C1N(C(C)=O)C(C(N1C(C)=O)N3C(C)=O)N2C(C)=O,inactive: -0.07%
2,Cc1ccc(NP(=O)(Oc2ccccc2)Oc2ccccc2)nc1,inactive: -0.18%
3,CCc1nc2c(n1)c1c(non1O)c1c2no[n+]1[O-],inactive: 0.17%
4,O=[N+]([O-])c1cc([N+](=O)[O-])c(CCNc2ccccc2)c([N+](=O)[O-])c1,inactive: 1.73%
5,CC(C)CC(=O)NC(Sc1ccc(Cl)cc1)C(Cl)(Cl)Cl (configuration not stated),inactive: 0.94%
6,Oc1ccccc1CNc1ccccn1,inactive: -0.19%
7,Cc1c2non([O-])c-2c(C)[n+](=O)[n+]1[O-],inactive: 0.38%
8,O=C(NC(Sc1ccncn1)C(Cl)(Cl)Cl)c1ccccc1 (configuration not stated),inactive: 0.15%
9,NC(=O)c1cc([N+](=O)[O-])cc([N+](=O)[O-])c1N,inactive: 0.34%
10,Cc1ccc(N/C(=N/P(=O)(N2CCOCC2)N2CCOCC2)N2CCOCC2)cc1,inactive: 0.87%
11,COc1ccccc1OP(=O)(Nc1ccc(C)cn1)Oc1ccccc1OC,inactive: 0.76%
12,Clc1ccc(Cl)c(NC2=NCC(CBr)S2)c1 (configuration not stated),inactive: 0.16%
13,CN1CCCC(OC(=O)C(c2ccccc2)c2ccccc2)C1 (configuration not stated),inactive: 0.14%
14,CCN(N=Nc1nonc1N)c1nonc1N,inactive: 0.22%
15,CCOP(=O)(Nc1ccccc1)OCC,inactive: 0.17%
16,Cc1cc(SC(NC(=O)c2ccc(F)cc2)C(Cl)(Cl)Cl)ncn1 (configuration not stated),inactive: 0.04%
17,ClCCSc1nnc(-c2cccnc2)o1,inactive: 0.72%
18,CCN(CC)C(=S)SC(NC=O)C(Cl)(Cl)Cl (configuration not stated),inactive: 0.6%
19,CC(C)NC(=O)NP(=O)(Oc1ccccc1)Oc1ccccc1,inactive: -0.45%
20,O=[N+]([O-])c1cc([N+](=O)[O-])c(-c2ccn[nH]2)s1,inactive: 0.05%
21,Cc1ccc2nc3c(c(C)c2c1)CC(C(Cl)Cl)S3 (configuration not stated),inactive: 0.44%
22,COc1ccc(N/C(=N/P(=O)(N2CCOCC2)N2CCOCC2)N2CCOCC2)cc1,inactive: 0.02%
23,O=C(OC1CN2CCC1CC2)C12CC3CC(CC(C3)C1)C2 (configuration not stated),inactive: 0.18%
24,Cc1cc(=O)[nH]c(N[N+](=O)[O-])n1,inactive: 0.04%
25,Cc1c2c(nc3ccccc13)SC(C(Cl)Cl)C2 (configuration not stated),inactive: 0.22%
26,COc1ccc2nc(NP(=O)(c3ccccc3)c3ccccc3)sc2c1,inactive: 0.49%

row,SMILES,inhibition
1,CCC(C)N(CC(C)C)C(=S)SC(NC(C)=O)C(Cl)(Cl)Cl (configuration not stated),inactive: 0.38%
2,COP1(=S)c2c(C)nn(CCC#N)c2N=C(c2ccc(F)cc2)N1C (configuration not stated),inactive: 3.16%
3,O=C(COc1ccccc1)OC1CN2CCC1CC2 (configuration not stated),inactive: 0.09%
4,O=P(Nc1ccccn1)(c1cccc2ccccc12)c1cccc2ccccc12,inactive: 0.55%
5,Cc1cc(SC(NC=O)C(Cl)(Cl)Cl)ncn1 (configuration not stated),inactive: 0%
6,Cc1cc(SC(NC(=O)c2ccccc2)C(Cl)(Cl)Cl)nc(C(C)C)n1 (configuration not stated),inactive: 0%
7,O=P1(Nc2ncccn2)COc2ccccc2OC1,inactive: -0.28%
8,O=P1(Nc2ccc(Br)cn2)COc2ccccc2OC1,inactive: 0.21%
9,Cc1ccc(OCC(=O)OC2CN3CCC2CC3)cc1 (configuration not stated),inactive: -0.07%
10,Cc1nn(-c2ccccc2)c2c1P(=O)(N1CCOCC1)N(C)C(c1ccccc1)=N2 (configuration not stated),inactive: 0.47%
11,CC1CCC(C(C)C)C(OP(=O)(Nc2ccccn2)c2ccccc2)C1 (configuration not stated),inactive: 1.36%
12,CN(C)C1(CNC(=O)c2ccc(S(C)(=O)=O)cc2)CCCCC1,inactive: 0.04%
13,CC(C)/C=N\N=C(\N)N[N+](=O)[O-],inactive: 0.45%
14,O=P1(Nc2ccccn2)COc2ccccc2OC1,inactive: 2.91%
15,Clc1n[nH]nc1-c1nn[nH][15n]1,inactive: 0.06%
16,Cc1ccc(NCCc2c([N+](=O)[O-])cc([N+](=O)[O-])cc2[N+](=O)[O-])cc1,inactive: 1.73%
17,COc1cc(C2NCCC3(OCCO3)C2(C)C)cc(OC)c1OC (configuration not stated),inactive: 8.21%
18,CCOP(=O)(Nc1cccc2ccccc12)OCC,inactive: -0.13%
19,COc1cc(C(=O)NCC2(N3CCOCC3)CCCCC2)cc(Cl)c1OC(C)C,inactive: 0.36%
20,Cc1cccc(OCC(=O)OC2CN3CCC2CC3)c1 (configuration not stated),inactive: -0.72%
21,O=[N+]([O-])c1ccc2c(c1)nnn2O,inactive: 0.33%
22,CCOP1(=S)c2c(C)nn(CCC#N)c2N=C(c2ccc(F)cc2)N1C (configuration not stated),inactive: -0.26%
23,CCOP1(=S)c2c(C)nn(CCC#N)c2N=C(c2ccccc2F)N1C (configuration not stated),inactive: 1.41%
24,O=P(Nc1nccs1)(c1ccccc1)c1nc2ccccc2s1 (configuration not stated),inactive: 1.16%
25,O=P(Nc1nccs1)(Oc1ccccc1)Oc1ccccc1,inactive: 0.62%
